Assay results taken from patent US7994185B2, “Benzene sulfonamide thiazole and oxazole compounds” (Glaxo Smith Kline LLC, priority 2008, dated 2011).

Chains of the proteins cited; added tags and fusions are not shown. Residues count along the entry.
UniProt P15056, 2-766 V600E limits assumed: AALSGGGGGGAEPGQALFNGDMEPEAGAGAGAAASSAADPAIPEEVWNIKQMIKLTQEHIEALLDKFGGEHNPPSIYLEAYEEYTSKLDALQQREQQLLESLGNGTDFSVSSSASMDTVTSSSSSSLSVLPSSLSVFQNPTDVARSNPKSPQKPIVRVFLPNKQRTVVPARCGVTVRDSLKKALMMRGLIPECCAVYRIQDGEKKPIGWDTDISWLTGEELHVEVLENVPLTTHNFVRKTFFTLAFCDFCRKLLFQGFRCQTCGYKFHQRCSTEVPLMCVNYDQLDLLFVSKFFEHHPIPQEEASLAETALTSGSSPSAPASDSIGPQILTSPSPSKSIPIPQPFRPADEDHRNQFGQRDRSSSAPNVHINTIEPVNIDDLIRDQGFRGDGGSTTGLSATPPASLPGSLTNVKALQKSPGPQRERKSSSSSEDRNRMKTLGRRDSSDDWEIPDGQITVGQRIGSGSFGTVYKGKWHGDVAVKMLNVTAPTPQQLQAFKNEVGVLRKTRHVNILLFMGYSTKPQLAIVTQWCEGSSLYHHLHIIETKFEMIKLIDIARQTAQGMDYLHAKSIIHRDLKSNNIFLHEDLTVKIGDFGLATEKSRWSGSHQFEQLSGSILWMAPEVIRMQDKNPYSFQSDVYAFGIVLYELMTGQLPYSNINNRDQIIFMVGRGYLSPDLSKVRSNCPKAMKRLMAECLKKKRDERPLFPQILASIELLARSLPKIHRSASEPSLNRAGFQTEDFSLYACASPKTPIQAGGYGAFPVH

Legend:
[1] = biological target: BRAFV600E full-length (amino acids 2-766) (Homo sapiens, UniProt P15056, V600E); assay: B-Raf Accelerated MEK ATPase assay (BRAMA); type: biochemical; details: Table 1a; highest pIC50 for the one or more runs, categorized
[2] = test system: Human colon tumor cells (Colo205); assay: Cell growth inhibition assay (CellTiter-Glo), Colo205; type: cell-based; details: read-out: Activity in Colo205 Tumor Cells; Table 2a; 3 days incubation
[3] = test system: Human melanoma cancer cells (SK-MEL-28); assay: Cell growth inhibition assay (CellTiter-Glo), SK-MEL-28; type: cell-based; details: read-out: Activity in SK-MEL-28 Tumor Cells; Table 3a; 3 days incubation

`COCCCNc1nccc(-c2sc(N3CCOCC3)nc2-c2cccc(NS(=O)(=O)c3cc(F)ccc3F)c2F)n1` was tested, and the “B-Raf Activity” value [1] was “+++ (indicates at least one pIC50 measurement of greater than 7 against B-Raf)”, the IC50 [2] was under 100 nM and the IC50 [3] was under 100 nM.

For `CC(C)c1nc(-c2ccc(F)c(NS(=O)(=O)c3c(F)cccc3F)c2)c(-c2ccnc(NCC(F)(F)F)n2)s1`, the “B-Raf Activity” value [1] was “++ (indicates at least one pIC50 measurement greater than 6 against B-Raf but no measurement greater than pIC50 of 7)”, the IC50 [2] was over 1000 nM and the IC50 [3] was over 1000 nM.
